We go through nine compounds from PubChem BioAssay (EPA / NIEHS).

The structures appear in SMILES notation. Only a part is listed here, and it is no random draw. The source made the active and inactive calls. The calls were made as follows: active = hit-call score of the fitted dose curve at least 0.9, where 1 is the maximum; inactive = score below 0.9.

This experiment is described as follows: ATG_RORE_CIS: Attagene CIS-FACTORIAL HepG2 Assay for human RAR-related Orphan Receptor Element (RORE) (AID 2282959). Conditions: HepG2 Attagene cis-factorial RORE reporter, mRNA; actives raise or lower the signal.
Turning to `CC(C)N(C(=O)CCl)c1ccccc1`, the AC50 (commonly the concentration giving half of the maximal activity seen) is active: 56.8 µM.

With `[O-][Cl+2]([O-])O`, the call was inactive.

With `COc1cc(Cl)c(OC)cc1Cl`, the outcome was inactive.

On to `COc1ccc(O)c(C(C)(C)C)c1`, for which the AC50 was active: 83.5 µM.

For the compound `COC(=O)c1ccccc1S(=O)(=O)NC(=O)Nc1nc(C)cc(C)n1`, the compound was called inactive.

For the compound `CC[C@H](C)[C@H]1O[C@]2(C=C[C@@H]1C)C[C@@H]1C[C@@H](C/C=C(\C)[C@@H](O[C@H]3C[C@H](OC)[C@@H](O[C@H]4C[C@H](OC)[C@@H](O)[C@H](C)O4)[C@H](C)O3)[C@@H](C)/C=C/C=C3\CO[C@@H]4[C@H](O)C(C)=C[C@@H](C(=O)O1)[C@]34O)O2` (tested in a mixture with another compound), the call was inactive.

For the compound `CN(C)[C@@H]1C(=O)C(C(N)=O)=C(O)[C@@]2(O)C(=O)C3=C(O)c4c(O)cccc4[C@@](C)(O)[C@H]3[C@H](O)[C@@H]12`, the outcome was inactive.

As for `CCc1cccc(C)c1N(C(=O)CCl)C(C)COC` (centres undefined), the outcome was inactive.

For `C[N+](C)=CCl`, the compound was classed as inactive.
